# Measured values published in publication PMC10307939 (Pharmacology Research & Perspectives, 2023).
# Amino acid sequences for entries named in this document (tags omitted).
# UniProt P41143, whole entry: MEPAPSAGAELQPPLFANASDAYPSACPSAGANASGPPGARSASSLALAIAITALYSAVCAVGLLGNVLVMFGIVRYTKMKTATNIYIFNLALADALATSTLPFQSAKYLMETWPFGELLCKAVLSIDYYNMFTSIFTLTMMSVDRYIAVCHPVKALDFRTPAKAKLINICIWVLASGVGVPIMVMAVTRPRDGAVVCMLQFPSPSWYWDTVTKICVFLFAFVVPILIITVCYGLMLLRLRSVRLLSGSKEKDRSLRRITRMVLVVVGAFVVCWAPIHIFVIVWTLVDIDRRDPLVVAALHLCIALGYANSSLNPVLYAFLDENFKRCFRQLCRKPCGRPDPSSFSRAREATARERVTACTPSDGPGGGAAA
# Molecular target: human delta‐opioid receptor (Homo sapiens, UniProt P41143)
# Assay: Ligand‐stimulated [35S]GTPγS binding, hDOR‐CHO membranes
# Type: biochemical
# Conditions: read-out: DOR E max
structure (smiles),measurement,value
"CN1CC[C@]23c4c5ccc(O)c4O[C@H]2[C@@H](O)C=C[C@H]3[C@H]1C5 [Morphine, reference compound]",Emax,72.6 ± 12%
